According to patent publication US8945527B2, “Degradable compounds and methods of use thereof, particularly with particle replication in non-wetting templates” (The University of North Carolina at Chapel Hill, priority 2008, dated 2015):

Test: Release of entrapped rhodamine-B from 5 μm crosslinked particles in buffer, monitored by UV spectrometer
Type: physicochemical
Conditions: 37° C.; for relative rates of release of rhodamine-B: endosomal pH (pH 5.0 buffer), 5 μm particles made with the crosslinker
Procedure: Each particle was degraded at 37° C. in either pH 5.0 buffer (used to show effects at endosomal pH) or pH 7.4 buffer (used to show effects at normal physiologic pH). The release of entrapped rhodamine-B was monitored by UV spectrometer at a wavelength of 552 nm. The release profile for each crosslinker (the compounds of Formulas (7)-(11)) is shown in FIG. 2 through FIG. 6, respectively.

Substance: Octa-ethylene Glycol Diethyl Silyl Ether [PEG-8-DES]
- relative rates of release of rhodamine-B: DMS>>PEG-8-DES≧DES>>PEG-8-DIS≧DIS
- release rate / degradation of particles made with the crosslinker (in words) (endosomal pH conditions, 5 μm particles): ideal release rates

Substance: Octa-ethylene Glycol Diisopropyl Silyl Ether [PEG-8-DIS]
- relative rates of release of rhodamine-B: DMS>>PEG-8-DES≧DES>>PEG-8-DIS≧DIS
